Literature values as cited in patent publication US20100320428A1, “GASEOUS DIELECTRICS WITH LOW GLOBAL WARMING POTENTIALS” (priority 2006, published 2010).

Conditions: boiling point; Table 2, preferred dielectric compounds; cited from earlier work

Q: For `FP(F)(F)(F)F`, which “MY BP” value is on record?
A: The value was −84.5 °C.

Q: Which “MY BP” value does the source give for `FP(F)C(F)(F)F` here?
A: The value was −43.0 °C.

Q: Which “MY BP” value does the source give for Phosphorus trifluoride here?
A: Its value is −101.5 °C.

Q: For `O=C(N(F)F)N(F)F`, which “MY BP” value is on record?
A: Its value is −20.0 °C.

Q: With Difluoramine as the compound, how does the “MY BP” value read?
A: Its value is −23.2 °C.

Q: For `O=S(=O)(F)C(F)(F)F`, which “MY BP” value is on record?
A: The value was −21.7 °C.

Q: With Fluorine nitrate as the compound, how does the “MY BP” value read?
A: The value was −46.2 °C.
